# Reference: patent publication US12303503B1, “Use of dextromethorphan in combination with CYP2D6 and CYP3A4 enzyme inhibitors for the treatment of pain” (priority 2023, dated 2025)
# Assay type: in vivo, human
# Settings: person, long standing (>20 years) pain; oral treatment
smiles,measurement,value
CN1CC[C@]23c4c5ccc(O)c4O[C@H]2C(=O)CC[C@H]3[C@H]1C5 [hydromorphone],"pain relief (upper extremity pain, baseline grade #8-9)",not relieved
